IC50 data for 1 compound are collected here from ChEMBL document CHEMBL1681785, “Structure-activity relationships of flavonoids as inhibitors of breast cancer resistance protein (BCRP)” (Bioorg Med Chem, 2011).

The chains behind the UniProt entries cited, without tags or fusion partners. Where a name states a change or a piece, a line headed by the entry shows the natural chain unless it says otherwise.
UniProt Q9UNQ0: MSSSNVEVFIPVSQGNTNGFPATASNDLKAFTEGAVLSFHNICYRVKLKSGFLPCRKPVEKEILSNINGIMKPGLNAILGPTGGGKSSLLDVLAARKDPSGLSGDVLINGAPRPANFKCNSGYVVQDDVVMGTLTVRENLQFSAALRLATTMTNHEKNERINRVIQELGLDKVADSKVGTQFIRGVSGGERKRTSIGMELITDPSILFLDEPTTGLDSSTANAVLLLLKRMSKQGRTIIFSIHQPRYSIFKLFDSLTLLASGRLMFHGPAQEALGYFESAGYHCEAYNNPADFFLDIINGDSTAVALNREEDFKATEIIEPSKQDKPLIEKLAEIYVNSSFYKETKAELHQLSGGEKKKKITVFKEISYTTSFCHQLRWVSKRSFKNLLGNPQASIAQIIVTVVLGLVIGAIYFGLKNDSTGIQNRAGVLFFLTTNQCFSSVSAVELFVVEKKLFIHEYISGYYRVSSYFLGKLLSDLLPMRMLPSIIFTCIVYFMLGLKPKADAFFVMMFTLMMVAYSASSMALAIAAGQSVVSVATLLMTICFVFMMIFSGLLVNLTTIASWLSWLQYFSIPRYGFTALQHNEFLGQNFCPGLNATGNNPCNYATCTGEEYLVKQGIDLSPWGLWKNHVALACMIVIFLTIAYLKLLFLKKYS

The test concerns the target Broad substrate specificity ATP-binding cassette transporter ABCG2 (Homo sapiens, UniProt Q9UNQ0). Kind of test: Inhibition of BCRP expressed in MDCK cells using Hoechst 33342 staining. The class given is cell-based.

As usually defined, the IC50 is the concentration at which inhibition is half-maximal. High values mean a need for much substance, low ones inhibition by little substance. `O=c1cc(-c2ccccc2)oc2cc(O)cc(O)c12` [CHRYSIN] returned an IC50 of 1500 nM.
